In ChEMBL document CHEMBL3286130, “8-Substituted 2-alkynyl-N(9)-propargyladenines as A2A adenosine receptor antagonists” (Bioorg Med Chem, 2014):

Tests used:
HEK293 [1] = assay: Selectivity ratio of Ki for human adenosine A1 receptor expressed in CHOK1 cells to Ki for human adenosine A2A receptor expressed in HEK293 cells; format: cell-based
HEK293 [2] = assay: Selectivity ratio of Ki for human adenosine A2B receptor expressed in HEK293 cells to Ki for human adenosine A2A receptor expressed in HEK293 cells; format: cell-based

Molecule C#CCn1c(Br)nc2c(N)nc(C#CCCCCCC)nc21 has a Ratio Ki (HEK293 [1]) of 10 and a Ratio Ki (HEK293 [2]) of 1300.
